Laboratory results as given in PMC2866048 (Journal of molecular biology, 2010).

target: Yeast actin mutant D51C/C374S, polymerised (F-actin) (yeast, UniProt P60010 1-375, D51C | C374S); experiment: cross-linking

Binder | binding result
DrABD300 mutant K238C (domain or fragment) GSEEHRRCQQSLEAEEAKRRLKEQSIFGDQRDEEEESQMKKSESEVEEAAAIIAQRPDNPREFFRQQERV | binds
DrABD300 mutant K270C (domain or fragment) GSEEHRRKQQSLEAEEAKRRLKEQSIFGDQRDEEEESQMCKSESEVEEAAAIIAQRPDNPREFFRQQERV | binds

The remaining lines, values ahead:

binding result | Binder
binds | DrABD300 mutant K271C (domain or fragment) GSEEHRRKQQSLEAEEAKRRLKEQSIFGDQRDEEEESQMKCSESEVEEAAAIIAQRPDNPREFFRQQERV
binds | DrABD300 mutant K252C (domain or fragment) GSEEHRRKQQSLEAEEAKRRLCEQSIFGDQRDEEEESQMKKSESEVEEAAAIIAQRPDNPREFFRQQERV
binds | DrABD300 mutant K248C (domain or fragment) GSEEHRRKQQSLEAEEACRRLKEQSIFGDQRDEEEESQMKKSESEVEEAAAIIAQRPDNPREFFRQQERV

target: Rabbit skeletal actin, polymerised (F-actin) (rabbit, UniProt P68135 1-377); experiment: co-sedimentation

Kd [µM] | stoichiometry N [actin protomers per DrABD] | Binder
6.6 ± 0.4 | 1.6 | N-GST fused DrABD (drebrin 233-317) (domain or fragment) EEHRRKQQSLEAEEAKRRLKEQSIFGDQRDEEEESQMKKSESEVEEAAAIIAQRPDNPREFFRQQERVASASGGSCDAPAPAPFN
7.6 ± 0.6 | 1.6 | N-GST fused DrABD300 (drebrin 233-300) (domain or fragment) EEHRRKQQSLEAEEAKRRLKEQSIFGDQRDEEEESQMKKSESEVEEAAAIIAQRPDNPREFFRQQERV
